## Antibody variant affinities, Ab-14 heavy chain, assay 1

Antigen: PDVDLGDISGINAS, a 14-residue peptide of the SARS-CoV-2 spike HR2 region.

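Phage display of a naive human antibody library on the peptide gave the parent. Library AAYL49 holds single substitutions and randomly drawn double and triple substitutions in the CDRs. Affinity was read by AlphaSeq, a pooled yeast mating assay with surface-displayed partners. Mating (16 h, 30 °C) was followed by selection of diploids and sequencing of their barcodes. Scores were corrected for input abundance and mapped to Kd with protein pairs of known affinity run in the same pool. The assay was run in three technical replicates.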

Parent: Ab-14, a human scFv built as VH, the linker GGGGSGGGGSGGGGS, VL. Only the CDRs of the heavy chain vary.
VH: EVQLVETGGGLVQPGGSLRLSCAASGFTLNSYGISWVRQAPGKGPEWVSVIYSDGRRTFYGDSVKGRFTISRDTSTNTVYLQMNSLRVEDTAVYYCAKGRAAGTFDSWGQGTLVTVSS
VL: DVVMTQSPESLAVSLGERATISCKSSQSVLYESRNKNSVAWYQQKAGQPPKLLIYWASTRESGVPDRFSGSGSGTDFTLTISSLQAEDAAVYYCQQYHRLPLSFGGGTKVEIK

Each variant is given by its three heavy chain CDRs, as the data file delimits them; those of the parent are GFTLNSYGIS, VIYSDGRRTFYGDSVK, GRAAGTFDS.
This list gathers variants with a substitution at S31 (VH, numbered from residue 1).
Kd is apparent (estimated from mating counts) and averaged on the log scale over replicates with a signal. Smaller is tighter.
"no signal" marks a missing value. The strain was present, yet no cells mated with the target were sequenced in any replicate, which points to weak or no binding.
In this assay the parent's reference entry averaged 4.4 nM; its copy inside this library read 13 µM (one replicate of three).

CDR-H1,CDR-H2,CDR-H3,Kd (apparent),detected
GFTLNHYGIS,VIYSDGRRTFYGDSVG,GRAAVTFDS,no signal,0 of 3
GFTLNQYGIS,VIYSDGRRTFYGDSCK,GRAALTFDS,5.1 nM,3 of 3
GFTLNIYGIS,VIYSDGRRYYYGDSVK,GRAAGTFDS,450 nM,3 of 3
GCTLNDYGIS,VIYSDGRRTFYGDSVK,GRAAGTFDS,4.6 µM,2 of 3
GFTLNYYGIA,VIYSDGRRTFYGDMVK,GRAAGTFDS,no signal,0 of 3
GFTLNTYGIS,VIYSDGRRDFYGDSVK,GRAASTFDS,220 µM,1 of 3
GFTLNLYGIS,VIYSDGRRTFYGDSVK,GRAAGTFDS,29 nM,3 of 3
GFTANKYGIS,VIYSDGRRTFYGDSQK,GRAAGTFDS,no signal,0 of 3
GFTLNMYGIS,QIYSDGRRTFYGDTVK,GRAAGTFDS,no signal,0 of 3
GFCLNIYVIS,VIYSDGRRTFYGDSVK,GRAAGTFDS,no signal,0 of 3
GFTLMMYGIS,VIYSDWRRTFYGDSVK,GRAAGTFDS,no signal,0 of 3
GFTLNVYGGS,VIYSDGRRTFYGDSVK,GRAAGTFRS,no signal,0 of 3
GFTLNKYGIS,VIYSDVRRTFYGDSVK,GRAMGTFDS,no signal,0 of 3
GFTLNEYGIS,VIYSDKRRTFYGDSVK,GRAACTFDS,no signal,0 of 3
GFTLNGYGIS,NIYSDGRRTFYGDSVK,GRAAGTYDS,230 µM,1 of 3
GFTLECYGIS,VIYSDGRRTFYGDSVK,GRASGTFDS,61 nM,3 of 3
GFTLNLYGIS,VIYSCGRRTFYGDSVK,GRAAGTFDS,no signal,0 of 3
GFTQNWYGIS,VIYSDGRRTFYGDSVK,GWAAGTFDS,320 µM,2 of 3
GFTLNFYGIS,VIMSDYRRTFYGDSVK,GRAAGTFDS,no signal,0 of 3
QFTLNIYGIS,VIYSDGRRTFYGDSVK,GRWAGTFDS,7.8 µM,2 of 3
GFTLNTYGWS,VIYSDGRRTFYGDSVK,GRAAGTDDS,980 nM,1 of 3
GFNLNNYGIS,VIYSDGRRTFYGDSVK,GRAAGTFHS,no signal,0 of 3
KFTLNVYGIS,VIYSDGRRTFYGDSVK,GRYAGTFDS,270 nM,3 of 3
GFTKNLYGIS,VIYSDGRRTFYGDSVK,GSAAGTFDS,no signal,0 of 3
GFTLNDYGIS,VIYSDGRFTFYQDSVK,GRAAGTFDS,8.7 µM,3 of 3
GFTLNEYGIS,VMYSDGRRTFYGDSVK,YRAAGTFDS,120 nM,3 of 3
GFTLNNYGIS,VIYSDGRRTQYGDSVK,GRAAGTFDS,no signal,0 of 3
GFWLNDYGIS,VIYSDGRRTFDGDSVK,GRAAGTFDS,no signal,0 of 3
GFTLNRYGIS,PIYSDGRRTFPGDSVK,GRAAGTFDS,no signal,0 of 3
GFTLNVYGIS,VIYSDGRRTFYGDSVK,GRAAGTFDS,54 nM,3 of 3
GFTLNCYGIS,VIYHDGRRTFYGDSVK,GRAAGTFDS,13 µM,1 of 3
GFTEYPYGIS,VIYSDGRRTFYGDSVK,GRAAGTFDS,6.5 µM,1 of 3
GFTLNFVGIS,VIYSDGRRTFYGDSVK,GRAAGTFKS,no signal,0 of 3
GFTLNAYGIS,VIYSDGRRTFCGDSVK,GTAAGTFDS,470 nM,3 of 3
GFTFNRYGIS,VIYSDGRRTFYGDSVK,GRAAGTFDG,29 µM,2 of 3
GFTLNFSGIS,VIYSDGRRTFYGDSVK,GRAAGTFDS,no signal,0 of 3
GFTLNDYGIS,VIYSDGRRTFYGDSRK,GRAAGCFDS,no signal,0 of 3
GFALNQYEIS,VIYSDGRRTFYGDSVK,GRAAGTFDS,17 µM,3 of 3
GFTLNYYGIS,VGYSDGRRTFLGDSVK,GRAAGTFDS,35 µM,1 of 3
GFTWNPYGIS,VIYSDGRRTFYGDSVK,GRAAGTPDS,12 µM,2 of 3
GFTLNDYGIS,VIYSDGRRWFYGDSVK,GRAAGTFDI,42 nM,3 of 3
GFTLNAYGIS,HIYSDGRMTFYGDSVK,GRAAGTFDS,no signal,0 of 3
GFTQNDYGIS,VIYSDGRRTFYVDSVK,GRAAGTFDS,470 nM,1 of 3
GFTLNHYGIS,VIRSDGRRTFYGDSTK,GRAAGTFDS,no signal,0 of 3
GFTLNYYGIS,VIYNDGRRTFYGDSAK,GRAAGTFDS,no signal,0 of 3
GFTLNYYGIS,VIYSDGRHTFYGDSVK,GRASGTFDS,18 µM,2 of 3
GFTLNCIGIS,FIYSDGRRTFYGDSVK,GRAAGTFDS,no signal,0 of 3
GFTLNLYGIS,VIYSDGFRTFYGDSVK,GRAAGTFIS,160 nM,3 of 3

The first 7 variants above that were never detected:

CDR-H1,CDR-H2,CDR-H3,Kd (apparent),detected
GFTLNHYGIS,VIYSDGRRTFYGDSVG,GRAAVTFDS,no signal,0 of 3
GFTLNYYGIA,VIYSDGRRTFYGDMVK,GRAAGTFDS,no signal,0 of 3
GFTANKYGIS,VIYSDGRRTFYGDSQK,GRAAGTFDS,no signal,0 of 3
GFTLNMYGIS,QIYSDGRRTFYGDTVK,GRAAGTFDS,no signal,0 of 3
GFCLNIYVIS,VIYSDGRRTFYGDSVK,GRAAGTFDS,no signal,0 of 3
GFTLMMYGIS,VIYSDWRRTFYGDSVK,GRAAGTFDS,no signal,0 of 3
GFTLNVYGGS,VIYSDGRRTFYGDSVK,GRAAGTFRS,no signal,0 of 3

Background: pairings of library AAYL49 with three empty control strains gave a value in 15% of cases (median 11 µM, 5th percentile 680 nM). Values in that range, when seen in few replicates, are hard to tell from nonspecific mating.

Values reported by Engelhart et al. 2022, doi:10.1038/s41597-022-01779-4 (FLAb copy).